These results are taken from PMC10252707, “Zn^2+ and Cu^2+ Interaction with the Recognition Interface of ACE2 for SARS-CoV-2 Spike Protein” (2023).

Data set [1] has as its target His34 (UniProt position 34, …). The data set can be described thus: potentiometry. The settings on record: 0.1 M NaClO4.
Data set [2] has as its target Lys31 (UniProt position 31, …). As to the kind of experiment: potentiometry. The settings on record: 0.1 M NaClO4.
Where [3] appears, read: 298 K, none (4 mM HClO4 / NaClO4 medium, argon atmosphere), free peptide (no metal), 0.5 mM.
Setting [4] is: 298.2 K, none (HClO4 / NaClO4 medium, argon atmosphere), Cu(II)-bound peptide, metal:ligand 1:1.1, ligand 0.5 mM.

One may read the pKa as the negative logarithm of the acid dissociation constant. Take LDKFNHEAED [P29-38, peptide fragment 29-38 of angiotensin-converting enzyme 2 (ACE2) (Homo sapiens)]: the pKa is on record as 6.84 in data set [1] (setting [3]); 4.77 in data set [1] (setting [4]); 5.79 in data set [1] (298.2 K, none (HClO4 / NaClO4 medium, argon atmosphere), Zn(II)-bound peptide, metal:ligand 1:1.1, ligand 0.5 mM); 10.21 in data set [2] (setting [3]); 11.20 in data set [2] (setting [4]).
